# Results published in patent US12110507B2, “Method for preparing functional hepatic progenitor cells or hepatic cells, or functional small intestinal epithelial progenitor cells or small intestinal epithelial cells” (priority 2017, dated 2024).
# Test system: hepatic progenitor cells differentiated from SEES5 cells
# Assay: culture of hepatic progenitor cells differentiated from SEES5 cells in the presence of an antibiotic (selection)
# Format: cell-based, human
# Settings: conditions of Table 6; data not shown
substance,measurement,value
phleomycin,CYP3A4 expression of the cells selected with antibiotic,markedly high level
